Data from ChEMBL document CHEMBL1151743, “Dual inhibitors of matrix metalloproteinases and carbonic anhydrases: iminodiacetyl-based hydroxamate-benzenesulfonamide conjugates” (J Med Chem, 2008).

Sequences of proteins named here, by UniProt entry; tags and fusion partners are left off. A change or cut given only in a name is not applied to a line headed by its entry.
UniProt P22894: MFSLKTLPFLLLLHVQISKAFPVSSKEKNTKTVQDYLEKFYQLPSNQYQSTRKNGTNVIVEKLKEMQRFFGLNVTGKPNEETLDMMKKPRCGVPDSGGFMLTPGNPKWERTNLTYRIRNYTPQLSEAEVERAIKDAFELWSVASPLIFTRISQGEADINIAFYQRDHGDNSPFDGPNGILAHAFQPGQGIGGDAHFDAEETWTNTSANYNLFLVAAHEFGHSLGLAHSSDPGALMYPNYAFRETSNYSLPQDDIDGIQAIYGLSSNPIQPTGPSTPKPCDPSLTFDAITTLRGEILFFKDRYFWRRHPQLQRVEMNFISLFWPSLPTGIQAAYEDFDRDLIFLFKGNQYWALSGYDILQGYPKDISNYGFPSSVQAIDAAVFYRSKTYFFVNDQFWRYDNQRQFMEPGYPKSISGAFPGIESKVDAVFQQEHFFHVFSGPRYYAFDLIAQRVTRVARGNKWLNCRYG

Tests used:
Neutrophil collagenase = Neutrophil collagenase (Homo sapiens, UniProt P22894); assay: Inhibition of MMP8
Interstitial collagenase = molecular target: T1, Interstitial collagenase (Homo sapiens, UniProt P03956); assay: Inhibition of MMP1
T1 sequence (P03956 whole entry): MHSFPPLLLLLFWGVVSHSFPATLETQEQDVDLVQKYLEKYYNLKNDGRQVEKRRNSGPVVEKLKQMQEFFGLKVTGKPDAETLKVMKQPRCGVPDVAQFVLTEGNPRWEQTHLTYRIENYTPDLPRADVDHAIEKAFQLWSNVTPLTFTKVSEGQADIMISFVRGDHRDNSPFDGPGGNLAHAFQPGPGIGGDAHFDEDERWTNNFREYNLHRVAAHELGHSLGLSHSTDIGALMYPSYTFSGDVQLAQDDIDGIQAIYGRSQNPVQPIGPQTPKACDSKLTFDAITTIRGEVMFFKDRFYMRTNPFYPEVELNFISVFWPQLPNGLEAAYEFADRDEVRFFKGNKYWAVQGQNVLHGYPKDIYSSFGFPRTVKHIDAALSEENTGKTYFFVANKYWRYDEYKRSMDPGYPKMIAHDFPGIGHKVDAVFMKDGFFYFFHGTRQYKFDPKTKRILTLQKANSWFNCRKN

For `COc1ccc(S(=O)(=O)N(Cc2cccnc2)[C@@H](C(=O)NO)C(C)C)cc1` [CGS-27023A], the IC50 (Neutrophil collagenase) was 7.7 nM and the IC50 (Interstitial collagenase) was 56.3 nM.
